Target: Carbonic anhydrase

NS(=O)(=O)c1ccc([N+](=O)[O-])cc1
Ki: 200 pM

— ChEMBL document CHEMBL1123344, “N-Substituted sulfonamide carbonic anhydrase inhibitors with topical effects on intraocular pressure” (J Med Chem, 1986)
